## Antibody variant affinities, Ab-14 heavy chain, assay 1

Values reported by Engelhart et al. 2022, doi:10.1038/s41597-022-01779-4 (FLAb copy).

All variants were tested on one target, the spike HR2 peptide PDVDLGDISGINAS (SARS-CoV-2).

The variants keep the light chain, the linker and the frameworks of Ab-14 (scFv order VH, the linker GGGGSGGGGSGGGGS, VL).
VH: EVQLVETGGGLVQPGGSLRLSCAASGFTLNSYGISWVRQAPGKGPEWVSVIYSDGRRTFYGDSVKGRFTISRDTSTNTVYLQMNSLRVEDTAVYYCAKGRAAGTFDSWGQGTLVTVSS
VL: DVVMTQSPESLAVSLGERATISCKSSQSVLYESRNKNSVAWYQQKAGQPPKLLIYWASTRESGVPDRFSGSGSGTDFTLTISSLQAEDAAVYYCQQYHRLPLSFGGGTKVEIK

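The starting antibody came from a phage panning campaign against this peptide. Variants in AAYL49 differ from the parent at up to three CDR positions; double and triple changes were sampled at random. In AlphaSeq, yeast of one mating type display the scFv and yeast of the other type display the target. After mating in shaken culture at 30 °C for 16 h, diploids were selected and their barcode pairs sequenced. The ratio of observed to expected reads was calibrated, replicate by replicate, on BCL2-family standards whose Kd was known from biolayer interferometry. There are three technical replicates.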

Variants are written as CDR1, CDR2 and CDR3 of the heavy chain (limits as in the source). Parent: GFTLNSYGIS, VIYSDGRRTFYGDSVK, GRAAGTFDS. Kd is apparent (estimated from mating counts) and averaged on the log scale over replicates with a signal. Smaller is tighter. "not detected" marks a missing value. The strain was present, yet no cells mated with the target were sequenced in any replicate, which points to weak or no binding. Order: sorted from the lowest average up, undetected variants last.

CDR-H1	CDR-H2	CDR-H3	apparent Kd	replicates with signal	control signals
GFCLNSYGIS	VIYADGRRTFYGDSVK	GRAAGTFDS	1.9 nM	3 of 3	0 of 9
GFTLNSYGIS	VIYGDGRRTFYGDSVK	GRIAGSFDS	31 nM	3 of 3	2 of 9
GFTLNSYGRS	VIYSDGRRKFYGDSVK	GRQAGTFDS	35 nM	3 of 3	1 of 9
GFTLNCYGIS	VIYSDGRRTFYGKSVK	DRAAGTFDS	120 nM	1 of 3	0 of 9
GFTLNSYGIS	VIYSDGRRTFYGDSVK	GRKAGTSDS	150 nM	3 of 3	6 of 9
GVTLNSYGIS	VIYSMGRRTFYGDSVK	GRAADTFDS	160 nM	1 of 3	0 of 9
GFTLNSYGIS	VIYSDGLRTFYGDYVK	GAAAGTFDS	350 nM	3 of 3	1 of 9
GFTLNSYGIS	VIYSDGRQSFYGDSVK	GRAAGTFTS	400 nM	1 of 3	0 of 9
GFCLNSYGIS	VIYSDGTRTFYGDSVK	GVAAGTFDS	590 nM	3 of 3	0 of 9
GFTLNSYGIS	VIYSDGRRTFYGRSVK	GRAAGTFDF	700 nM	3 of 3	1 of 9
GFTLSSYGIS	VIYSDGRRTFYGDSVK	HRAAGNFDS	860 nM	1 of 3	1 of 9
GFTLNSYGIS	VIYSDGRRTTYRDQVK	GRAAGTFDS	3.5 µM	3 of 3	3 of 9
TFQLNSYGIS	VIYSDGRRTFYGDSVK	GRAAGTGDS	6.4 µM	1 of 3	0 of 9
GFTLNSYGIS	VIYSDGRRTFYGDSFV	GRAANTFDS	8.3 µM	1 of 3	0 of 9
GFTLNSYFIS	VIYSDGRRTFYGDSVK	GRTAGMFDS	8.6 µM	2 of 3	3 of 9
GFPLNSYGIS	VISSDGRRTFYGDSVK	GRAAGFFDS	10 µM	2 of 3	4 of 9
GFNLNSYGIS	VDYSDGMRTFYGDSVK	GRAAGTFDS	10 µM	1 of 3	0 of 9
GFELNSYGIS	VDYSDGRRTFYGDSVK	GRAAGTFDS	11 µM	2 of 3	1 of 9
GFTLNSYGIS	VIYHDGRRTFYGDSVK	VRAAGCFDS	13 µM	1 of 3	0 of 9
GFTLNSYHIS	VIYSFGRRTFYGDSVK	GRAAGTFVS	15 µM	1 of 3	4 of 9
GFTLNSYGIS	VIPSDGRITFYGDSVK	GRAAGTFDT	22 µM	2 of 3	2 of 9
GFTLNSYGIS	VIYSDWRRTFYGWSVK	GRACGTFDS	23 µM	1 of 3	1 of 9
GFILNRYGIS	VIYSDSRRTFYGDSVK	GRAAGTFDS	27 µM	1 of 3	2 of 9
GFTLNSYGIS	VIVSDGRRTFYGDSVK	GRAATTFDP	28 µM	2 of 3	2 of 9
GFTLNSYGIS	VICSDGRRTFGGKSVK	GRAAGTFDS	31 µM	1 of 3	4 of 9
GFTLNSYGIS	VIYSDGRVTFYGDSVW	GRAAGTFDS	41 µM	1 of 3	3 of 9
GFIYNKYGIS	VIYSDGRRTFYGDSVK	GRAAGTFDS	64 µM	1 of 3	1 of 9
GFTLNSYGDS	YIYSDGRRTFYGDSVV	GRAAGTFDS	90 µM	2 of 3	6 of 9
GFTLNSYGIS	VIYSDGRRTFYGNSVK	GRAAGTFDC	210 µM	1 of 3	1 of 9
GFTLNGYGIS	NIYSDGRRTFYGDSVK	GRAAGTYDS	230 µM	1 of 3	2 of 9
GFQLNSYHIS	IIYSDGRRTFYGDSVK	GRAAGTFDS	250 µM	1 of 3	1 of 9
GFTLNSYGIQ	VITSDGRRTFYGDSVK	GRAAGTFDS	670 µM	1 of 3	1 of 9
GQTLNSYGIS	VIYSDGSRTFYGDSVK	GRGAGTFDS	not detected	0 of 3	0 of 9
GFTLNSYGIS	VIYSDGRRTFYGDSVK	GHALGTFDS	not detected	0 of 3	1 of 9
GFTLNFYGIS	VLYSDGRRTFYGDSVK	GRAAGTADS	not detected	0 of 3	1 of 9
GFTLNSYGIS	VIYSDGRRCFYGYSVK	GRAAGTFDS	not detected	0 of 3	0 of 9
GFTLNSYGIS	VMYSDGRRTFYGDSVK	GRAEGTFDS	not detected	0 of 3	0 of 9
GFTLNSYGIS	VIYSDGRRTFYYDSVK	GRGAWTFDS	not detected	0 of 3	1 of 9
GFTLMSLGIS	VIYSDGRRTFYGDFVK	GRAAGTFDS	not detected	0 of 3	2 of 9
GFTLNSYGGS	VIYSDGRRTFYGDSVK	GMAAGTFDS	not detected	0 of 3	0 of 9
GFTLNSYGIS	VTYSDGRRTFYGDSVK	GRAAGTFHS	not detected	0 of 3	1 of 9
YFTLNSYGIS	VIYSFGRRTFYGDSVK	GRAAGTDDS	not detected	0 of 3	0 of 9
IFTLNSYGIS	VIYSDTRRTFYGDSVK	GRACGTFDS	not detected	0 of 3	2 of 9
GFTLQSYGIS	EIYSDGRRTFYGDSVK	GRDAGTFDS	not detected	0 of 3	0 of 9
GFTLNSYGIS	VIYSTGRRTFYGDSVK	ARADGTFDS	not detected	0 of 3	0 of 9
GFTDNSYGIS	VIYSDGRRTFYRDSGK	GRAAGTFDS	not detected	0 of 3	3 of 9
KFTLNSYGIS	VIYSDGQRTFYGCSVK	GRAAGTFDS	not detected	0 of 3	0 of 9
GFTLNSYGIS	VIYSDRRRTYYGDSVK	GRSAGTFDS	not detected	0 of 3	0 of 9
RFTLNSYGIS	VIYSFGRRTFYGDSVK	GRAAGTFDS	not detected	0 of 3	3 of 9
GFTLNSYGIQ	VIYSDTRRTFYGDSVK	GRAAGTFDM	not detected	0 of 3	1 of 9
GLTLNSYGIS	VPYSDGWRTFYGDSVK	GRAAGTFDS	not detected	0 of 3	1 of 9
GFTLNSYGIS	VIYSDGTRTYRGDSVK	GRAAGTFDS	not detected	0 of 3	0 of 9
GYTLNSYGIS	MIYSDGRRTFYGDSMK	GRAAGTFDS	not detected	0 of 3	0 of 9
GFTLNSDGIS	VIHSWGRRTFYGDSVK	GRAAGTFDS	not detected	0 of 3	0 of 9
GFTLNSYGIS	VYHSDGRNTFYGDSVK	GRAAGTFDS	not detected	0 of 3	3 of 9
GFTLNHAGIC	VIYSDGRRTFYGDSVK	GRAAGTFDS	not detected	0 of 3	0 of 9
GFTLNSYGIS	VIYSDSRRTFYYDSVA	GRAAGTFDS	not detected	0 of 3	1 of 9
GCTTNSYGIS	VHYSDGRRTFYGDSVK	GRAAGTFDS	not detected	0 of 3	1 of 9
GLTVNSYGIS	VIYSDGRRTFQGDSVK	GRAAGTFDS	not detected	0 of 3	0 of 9
GFTLNSYGIR	VPYSDGRRTFYGDSVK	GRAAGTIDS	not detected	0 of 3	0 of 9
GFTLNSYGKS	VHYSDGRRTFYGDSVK	GRAAGTFDN	not detected	0 of 3	0 of 9
GFTLSSYGIS	VIYSFGRRTFSGDSVK	GRAAGTFDS	not detected	0 of 3	0 of 9

The opening 10 entries, copied out:

CDR-H1	CDR-H2	CDR-H3	apparent Kd	replicates with signal	control signals
GFCLNSYGIS	VIYADGRRTFYGDSVK	GRAAGTFDS	1.9 nM	3 of 3	0 of 9
GFTLNSYGIS	VIYGDGRRTFYGDSVK	GRIAGSFDS	31 nM	3 of 3	2 of 9
GFTLNSYGRS	VIYSDGRRKFYGDSVK	GRQAGTFDS	35 nM	3 of 3	1 of 9
GFTLNCYGIS	VIYSDGRRTFYGKSVK	DRAAGTFDS	120 nM	1 of 3	0 of 9
GFTLNSYGIS	VIYSDGRRTFYGDSVK	GRKAGTSDS	150 nM	3 of 3	6 of 9
GVTLNSYGIS	VIYSMGRRTFYGDSVK	GRAADTFDS	160 nM	1 of 3	0 of 9
GFTLNSYGIS	VIYSDGLRTFYGDYVK	GAAAGTFDS	350 nM	3 of 3	1 of 9
GFTLNSYGIS	VIYSDGRQSFYGDSVK	GRAAGTFTS	400 nM	1 of 3	0 of 9
GFCLNSYGIS	VIYSDGTRTFYGDSVK	GVAAGTFDS	590 nM	3 of 3	0 of 9
GFTLNSYGIS	VIYSDGRRTFYGRSVK	GRAAGTFDF	700 nM	3 of 3	1 of 9

Background: pairings of library AAYL49 with three empty control strains gave a value in 15% of cases (median 11 µM, 5th percentile 680 nM). Values in that range, when seen in few replicates, are hard to tell from nonspecific mating. The control count says in how many pairings with the empty strains this scFv gave a signal.